Measured values as given in publication PMC11432405, “Development of Novel Alaninamide Derivatives with Anticonvulsant Activity and Favorable Safety Profiles in Animal Models” (International Journal of Molecular Sciences, 2024).

Amino acid sequences for entries named in this document (tags omitted).
UniProt P27338, whole entry: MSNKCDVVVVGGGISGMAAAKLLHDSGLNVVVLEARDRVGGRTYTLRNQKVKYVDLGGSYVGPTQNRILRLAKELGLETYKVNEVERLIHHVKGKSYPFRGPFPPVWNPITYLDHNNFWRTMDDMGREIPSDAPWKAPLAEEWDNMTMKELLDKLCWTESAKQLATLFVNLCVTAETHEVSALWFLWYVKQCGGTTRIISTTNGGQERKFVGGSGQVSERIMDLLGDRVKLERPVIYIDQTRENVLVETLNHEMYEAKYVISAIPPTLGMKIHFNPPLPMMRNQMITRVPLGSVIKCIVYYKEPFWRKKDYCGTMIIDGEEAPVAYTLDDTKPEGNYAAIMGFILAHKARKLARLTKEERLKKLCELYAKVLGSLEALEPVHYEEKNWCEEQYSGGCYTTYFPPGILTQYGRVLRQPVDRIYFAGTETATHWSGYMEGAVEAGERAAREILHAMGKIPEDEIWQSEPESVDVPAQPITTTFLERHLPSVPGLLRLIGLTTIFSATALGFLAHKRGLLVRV

Target: human recombinant MAO-B (Homo sapiens, UniProt P27338)
Assay: fluorometric monoamine oxidase B inhibition assay
Settings: read-out: % inhibition MAO-B (1 µM)

## C[C@H](NCc1ccc(OCc2cccc(F)c2)cc1)C(N)=O [SAF, safinamide, reference compound]
  inhibition at 1 µM: 100%
